Screen for blockers of NLRP3-driven cell death, PubChem AID 2061109 (Seoul National University).
Cells: mouse bone marrow macrophages; stimulus: LPS priming, then nigericin; dose: 5 µM; read-out: propidium iodide uptake by live imaging.
Inhibition in %: 0 = stimulated control, 100 = untreated cells; values below 0 were filed as 0. * marks the depositor's active call (above 70%). Part of the library is listed.

| compound | inhibition (%) |
|---|---|
| Cc1c([C@H](C)[C@@H]2NC[C@@H](C)C[C@H]2O)ccc2c1C[C@H]1[C@H]2CC=C2C[C@@H](O)CC[C@@]21C | 0.0 |
| O=C(NCc1cccs1)C1CCCCC1 | 0.0 |
| O=C(Nc1cccnc1)c1cc(C(=O)c2c(F)cccc2Br)c[nH]1 | 0.0 |
| CCCCC(=O)OCC(=O)[C@]1(O)Cc2c(O)c3c(c(O)c2[C@@H](OC2CC(NC(=O)C(F)(F)F)C(O)C(C)O2)C1)C(=O)c1c(OC)cccc1C3=O | 0.0 |
| CC1(C)[C@@H]2CC[C@@]1(C)[C@H](O)C2 | 0.0 |
| O=C(CNC(=O)c1cccc(C(F)(F)F)c1)N[C@@H]1CCN(Cc2ccc(Cl)cc2)C1 | 0.0 |
| Nc1cc(COc2c(Cl)cc(C[C@H](N)C(=O)O)cc2Cl)c2oc(-c3ccccc3)nc2c1 | 0.0 |
| C=C(C)C(=O)Nc1cccc(-c2ncnc3[nH]cc(C(=O)OCC)c23)c1 | 0.0 |
| Cn1nc(-c2cnc(N)c(-c3ccc(C(N)=O)c(F)c3)n2)nc1C1(c2ccccc2)CC1 | 0.0 |
| COC[C@H]1Cn2cc(-c3nc(Nc4ccnn4C)ncc3C)nc2C(=O)N1Cc1ccc(F)c(F)c1 | 0.0 |
| CCCCCCCCCCCCCCCCCCCC(=O)OC | 0.0 |
| Cc1cncc(-c2nc(NCCc3c[nH]c4ccccc34)c3ncn(C(C)C)c3n2)c1 | 0.0 |
| O=C(Cc1c[nH]c2ccccc12)N[C@@H](Cc1c[nH]c2ccccc12)C(=O)O | 0.0 |
| COc1ncc(F)cc1CNc1ccc(Cc2c[nH]c3ncc(C)cc23)c(F)n1 | 0.0 |
| CC(C)N=C(N)c1ccc2nc(-c3ccc(OCc4cccc(COc5ccc(-c6nc7ccc(C(N)=NC(C)C)cc7[nH]6)cc5)c4F)cc3)[nH]c2c1 | 0.0 |
| CNS(=O)(=O)c1ccccc1Nc1nc(Nc2ccc(N3CCN(C)CC3)cc2OC)ncc1Br | 0.0 |
| NNc1nc2ccccc2s1 | 0.0 |
| C[C@H](NC(=O)N1CCc2cccnc2[C@H]1c1ccc(C(F)(F)F)cc1)C(F)(F)F | 0.0 |
| Cc1ccc(-c2ccc3c(c2)C=C(C(=O)Nc2ccc(C[N+](C)(C)C4CCOCC4)cc2)CCC3)cc1.[Cl-] | 0.0 |
| CN1CCN(C(c2ccccc2)c2ccc(Cl)cc2)CC1 | 0.0 |
| CCOC1=C(O)C(=O)O[C@@H]1[C@@H](O)CO | 0.0 |
| O=C(NCc1ccc(Cl)cc1)C1CCN(S(=O)(=O)c2cc(Cl)cc(Cl)c2)CC1 | 0.0 |
| Cc1nccn1-c1ccc(Sc2cccc(C3(C(N)=O)CCOCC3)c2)cc1.Cl | 0.0 |
| Cc1cccc(CNc2ncnc3nc[nH]c23)c1O | 0.0 |
| NC(N)=Nc1nc(CSCCN=CNS(=O)(=O)c2ccc(Br)cc2)cs1 | 0.0 |
| Cc1nc2ccc(C(=O)N3CCC4(CC3)CC(=O)c3c(cnn3C(C)C)C4)cc2[nH]1 | 0.0 |
| COc1cc2c(Nc3cc(Cl)c(OC)c(Cl)c3)c(C#N)cnc2cc1OCCCN1CCN(C)CC1 | 0.0 |
| CNC(=O)c1cc(Oc2ccc(NC(=O)Nc3ccc(Cl)c(C(F)(F)F)c3)cc2)ccn1 | 0.0 |
| O=C(O)CC(CC(=O)O)C(=O)O | 0.0 |
| CCN(c1ccccc1)c1cc(=NC)n(C)c(C)n1.Cl | 0.0 |
| Oc1ccc2ccccc2c1N=Nc1nccs1 | 0.0 |
| CC(=O)OC(C)(C)/C=C/C(=O)[C@](C)(O)[C@H]1[C@H](O)C[C@@]2(C)[C@@H]3CC=C4[C@@H](C=C(O)C(=O)C4(C)C)[C@]3(C)C(=O)C[C@]12C | 0.0 |
| Cl.Cl.c1ccc(C(CC2=NCCN2)c2ccccn2)cc1 | 0.0 |
| CC[C@@]1(O)C(=O)OCc2c1cc1n(c2=O)Cc2cc3c(CN(C)C)c(O)ccc3nc2-1 | 0.0 |
| Cn1c(=O)c(Oc2ccc(F)cc2F)cc2cnc(NC3CCOCC3)nc21 | 0.0 |
| Cc1c(N2C(=O)c3ccc(C(=O)O)cc3C2=O)c(=O)n(-c2ccccc2)n1C | 0.0 |
| COc1cc2c(cc1N1C[C@@H](C)N[C@@H](C)C1)N(C(=O)c1ccc(-c3ccc(-c4noc(C)n4)cc3C)cc1)CC2.Cl | 0.0 |
| O=C(OCCO)c1ccc(NS(=O)(=O)c2cccc(-c3cc(F)ccc3O)c2)cc1O | 0.0 |
| Cc1nc2cc(F)c(F)cc2n1-c1cncc(Nc2ccc(C(F)(F)F)cc2)n1 | 0.0 |
| C[C@@H]1COCCN1c1cc(=O)n2c(n1)N(Cc1cncc(Cl)c1)[C@H](C(F)(F)F)CC2 | 0.0 |
| COc1cc(C(=O)NCCOCCOCCOCCNC(=O)CC2N=C(c3ccc(Cl)cc3)c3c(sc(C)c3C)-n3c(C)nnc32)ccc1NC(=O)C1NC(CC(C)(C)C)C(C#N)(c2ccc(Cl)cc2F)C1c1cccc(Cl)c1F | 0.0 |
| Cl.Nc1nc(NCC2CCC(CNS(=O)(=O)c3cccc4ccccc34)CC2)nc2ccccc12 | 0.0 |
| FC(F)(F)c1ccc(/C=C/c2nc(COc3ccc(CCCCn4ccnn4)cc3)co2)cc1 | 0.0 |
| O=C(c1ccccc1O)c1[nH]c(Cl)c(Cl)c1-n1c(C(=O)c2ccccc2O)cc(Cl)c1Cl | 0.0 |
| CN1CCC(c2cc(-c3ccncc3)c(-c3ccc(F)cc3)[nH]2)CC1 | 0.0 |
| CCS(=O)(=O)c1cc(Nc2ncc(F)c(N(Cc3ccccc3C#N)c3cc(CO)ccc3C)n2)ccc1N1CCN(C)CC1 | 0.0 |
| Nc1ncc(-c2cnn(CCO)c2)c2scc(-c3ccc(NC(=O)Nc4cccc(F)c4)cc3)c12 | 0.0 |
| O=C(Nc1ccc(C(F)(F)F)cc1)c1cc(Cl)cc2[nH]c(C(F)(F)F)nc12 | 0.0 |
| CC1=C2C[C@H]3[C@@H](CC=C4C[C@@H](O)CC[C@@]43C)[C@@H]2CC[C@]12O[C@@H]1C[C@H](C)CN[C@H]1[C@H]2C | 0.0 |
| Cn1c2c(c(=O)n(C)c1=O)C(C(F)(F)F)(C(F)(F)F)N=C(c1ccc(Cl)cc1)N2 | 0.0 |
| NCCO.O=C(Nc1ccc([N+](=O)[O-])cc1Cl)c1cc(Cl)ccc1O | 0.0 |

The last 7 compounds once more:

compound,inhibition (%)
CN1CCC(c2cc(-c3ccncc3)c(-c3ccc(F)cc3)[nH]2)CC1,0.0
CCS(=O)(=O)c1cc(Nc2ncc(F)c(N(Cc3ccccc3C#N)c3cc(CO)ccc3C)n2)ccc1N1CCN(C)CC1,0.0
Nc1ncc(-c2cnn(CCO)c2)c2scc(-c3ccc(NC(=O)Nc4cccc(F)c4)cc3)c12,0.0
O=C(Nc1ccc(C(F)(F)F)cc1)c1cc(Cl)cc2[nH]c(C(F)(F)F)nc12,0.0
CC1=C2C[C@H]3[C@@H](CC=C4C[C@@H](O)CC[C@@]43C)[C@@H]2CC[C@]12O[C@@H]1C[C@H](C)CN[C@H]1[C@H]2C,0.0
Cn1c2c(c(=O)n(C)c1=O)C(C(F)(F)F)(C(F)(F)F)N=C(c1ccc(Cl)cc1)N2,0.0
NCCO.O=C(Nc1ccc([N+](=O)[O-])cc1Cl)c1cc(Cl)ccc1O,0.0